TDP1 cell CPT = growth inhibition of DT40 Tdp1-/-;hTDP1 cells with camptothecin (screen for TDP1 inhibitors) | chicken DT40 Tdp1-/-;hTDP1 cells + 20 nM CPT, ATP luminescence, 48 h | 420,000 tested, 12% active | AID 686979 | Potency, µM (highest dose often 46.2 µM), usual class: inhibitors; also: nearly all actives have a fitted effect of over 55% in size
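Chicken DT40 Tdp1-/- cells stably complemented with human TDP1 were seeded at 400 cells/well in medium containing 20 nM camptothecin, exposed to pin-transferred compounds, and grown at 37 °C for at least 48 hr. Viability was read as ATP luminescence.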
miR-21 reporter = raises the signal of a miR-21 reporter; AID 2288; 340,000 tested, under 10 active; Potency, µM (doses to about 38.3 µM); HeLa miR-21 FLuc reporter, luciferase, 48 h; active = well fitted rising curve with a large enough effect; inconclusive = small, poorly fitted or top-dose-only effect; inactive = no such curve, though single readings can be large or run the other way;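 note: miR-21 action dims this reporter so a rising signal means less miR-21 action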
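HeLa miR-21-FLuc reporter line, endogenous miR-21; 2000 cells/well in DMEM/10% FBS; compound titration up to ~40uM final, 48 h, 37 degree Celsius; luciferase detection reagent, 15 min lysis, CCD luminescence.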
TDP1 cell noCPT = qHTS for Inhibitors of human tyrosyl-DNA phosphodiesterase 1 (TDP1): qHTS in cells in absence of CPT; DT40 Tdp1-/- hTDP1 cells, no CPT, ATP luminescence, 48 h; Potency, µM (top dose mostly 46.2 µM), hits mostly inhibitors; 420,000 tested, 15% active; also: nearly all actives have a fitted effect of over 55% in size
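Chicken DT40 Tdp1-/- cells stably complemented with human TDP1 were seeded at 400 cells/well with DMSO in place of 20 nM camptothecin. After compound pinning, cells grew at least 48 hr at 37 °C; viability read by CellTiter-Glo luminescence.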
TDP1 block = TDP1 (human) enzyme inhibition. Q9NUW8. recombinant TDP1, AlphaScreen DNA substrate cleavage. Potency, µM (top dose mostly 130 µM), usual class: inhibitors. 350,000 tested, 0.28% active. AID 485290; also: nearly all actives have a fitted effect of over 40% in size
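Signal: AlphaScreen proximity between streptavidin donor and anti-FITC acceptor beads on intact substrate. Reaction: Tdp1 1 nM, substrate 15 nM final, 5 min RT after 15 min compound preincubation.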
uPA surface inh = inhibitors of cell surface uPA generation. cell surface uPA generation assay, qHTS. Potency, µM (doses to about 38.3 µM), most hits filed as inhibitors. 330,000 tested, 0.31% active. AID 540303; active = well fitted inhibition curve with a large enough effect; inconclusive = small, poorly fitted or top-dose-only effect; inactive = no such curve, though single readings can be large or run the other way; tested in mouse RAW 264.7 cells; also: nearly all actives have a fitted effect of over 55% in size
A number is an active result; ! = repeats disagree. Most compounds without a hit are left out; they make up all but 16% or so of the library. Unless noted, calls follow the shape of the dose curve; as a rule, active = well fitted curve in the direction sought with a large enough effect; inconclusive = small, poorly fitted or top-dose-only effect, or another doubt; inactive = no such curve, though single readings can be large; an effect the other way counts as inactive or inconclusive.

Screening CCCCCCCCC returned TDP1 block inactive.
Screening COc1ccc(-n2cc3c(c2-c2cccc(Br)c2)c(=O)n(C)c(=O)n3C)cc1OC returned TDP1 cell CPT 21µM, miR-21 reporter inactive, TDP1 cell noCPT 13µM and TDP1 block inactive.
Cc1cccc(-c2c3c(=O)n(C)c(=O)n(C)c3cn2-c2ccccc2O)c1 was read as TDP1 cell CPT inconclusive, miR-21 reporter inactive, TDP1 cell noCPT inactive, TDP1 block inactive and uPA surface inh inactive.
COC(=O)c1ccccc1-n1cc2c(c1-c1cccc(C)c1)c(=O)n(C)c(=O)n2C was read as TDP1 cell CPT 10µM, miR-21 reporter inactive, TDP1 cell noCPT 7.3µM and TDP1 block inactive.
Screening Cn1c(=O)c2c(-c3cccc(Br)c3)n(CCO)cc2n(C)c1=O returned TDP1 cell CPT inconclusive, miR-21 reporter inactive, TDP1 cell noCPT inconclusive and TDP1 block inactive.
Screening Cc1cccc(-c2c3c(=O)n(C)c(=O)n(C)c3cn2-c2cc(N)c(Cl)cc2Cl)c1 returned TDP1 cell CPT 5.8µM, miR-21 reporter inconclusive, TDP1 cell noCPT 3.7µM and TDP1 block inactive.
Screening Cc1cc(N)c(-n2cc3c(c2-c2ccc(Br)cc2)c(=O)n(C)c(=O)n3C)cc1C returned TDP1 cell CPT 16µM, miR-21 reporter inactive, TDP1 cell noCPT 13µM and TDP1 block inactive.
`COc1cc2c(cc1NC(=O)CSc1nc3ccccc3[nH]1)oc1ccccc12` gave TDP1 cell CPT inconclusive, miR-21 reporter inactive, TDP1 cell noCPT inconclusive, TDP1 block inactive and uPA surface inh inactive.
Screening Cc1cccc(NC(=S)NC(=O)/C=C/c2ccco2)n1 returned TDP1 cell CPT inconclusive, miR-21 reporter inactive, TDP1 cell noCPT inconclusive, TDP1 block inactive and uPA surface inh inactive.
COc1ccccc1NC(=O)c1ccc(NC(=O)CSc2nncn2C)cc1 was read as TDP1 cell CPT inactive, miR-21 reporter inactive, TDP1 cell noCPT inactive, TDP1 block inactive and uPA surface inh inactive.
Cc1csc(CNc2ncnc3ccc(-c4c(C)noc4C)cc23)c1 was read as TDP1 block inactive.
For COc1c(-c2ccc(O)c(O)c2)oc2cc(O)cc(O)c2c1=O the results were TDP1 cell CPT 10µM!, miR-21 reporter inactive, TDP1 cell noCPT 9.2µM!, TDP1 block inactive and uPA surface inh inconclusive.
For O=c1c(OC2OC(CO)C(O)C(O)C2OC2OC(CO)C(O)C(O)C2OC2OC(CO)C(O)C(O)C2O)c(-c2ccc(O)c(O)c2)oc2cc(O)cc(O)c12 (stereo not given) the results were TDP1 cell CPT 15µM, miR-21 reporter inactive, TDP1 cell noCPT 21µM and uPA surface inh inactive.
Screening Cc1ccc(S(=O)(=O)n2nc(OC(=O)c3ccccc3F)cc2N)cc1 returned TDP1 cell CPT inactive, miR-21 reporter inactive, TDP1 cell noCPT inactive, TDP1 block inactive and uPA surface inh inactive.
O=C(CNS(=O)(=O)c1ccccc1)Nc1ccc(F)cc1F was read as TDP1 cell CPT inactive, miR-21 reporter inactive, TDP1 cell noCPT inactive, TDP1 block inactive and uPA surface inh inactive.
`Cc1ccc(S(=O)(=O)NCc2cn3c(C)csc3n2)cc1` gave TDP1 cell CPT inactive, miR-21 reporter inactive, TDP1 cell noCPT inactive, TDP1 block inactive and uPA surface inh inactive.
For O=S(=O)(NCc1cn2ccsc2n1)c1cccs1 the results were TDP1 cell CPT inactive, miR-21 reporter inactive, TDP1 cell noCPT inactive, TDP1 block inactive and uPA surface inh inactive.
For O=S(=O)(NCc1cn2ccsc2n1)c1ccc2c(c1)OCCO2 the results were TDP1 cell CPT inconclusive, miR-21 reporter inactive, TDP1 cell noCPT 23µM, TDP1 block inactive and uPA surface inh inactive.
O=S(=O)(NCc1cn2ccsc2n1)c1ccc(Oc2ccccc2)cc1 was read as TDP1 cell CPT 9.2µM, miR-21 reporter inactive, TDP1 cell noCPT 10µM, TDP1 block inactive and uPA surface inh inactive.
Screening Cc1csc2nc(CNS(=O)(=O)c3ccc(-c4ccccc4)cc3)cn12 returned TDP1 cell CPT inconclusive, miR-21 reporter inactive, TDP1 cell noCPT 18µM, TDP1 block inactive and uPA surface inh inconclusive.
For CCc1ccc(S(=O)(=O)NCc2cn3ccsc3n2)s1 the results were TDP1 cell CPT inactive, miR-21 reporter inactive, TDP1 cell noCPT inconclusive, TDP1 block inactive and uPA surface inh inactive.
COc1ccccc1NS(=O)(=O)c1ccc(C(=O)NCCCN2CCCC2=O)cc1 was read as TDP1 cell CPT inactive, TDP1 cell noCPT inactive, TDP1 block inactive and uPA surface inh inactive.
Screening O=C(O)c1cc(S(=O)(=O)Nc2ccc3cn[nH]c3c2)ccc1O returned TDP1 cell CPT inconclusive, TDP1 cell noCPT inactive, TDP1 block inactive and uPA surface inh inactive.
`C#Cc1ccccc1OCCCN1CCC(C(O)(c2ccccc2)c2ccccc2)CC1` gave TDP1 cell CPT 9.2µM and TDP1 cell noCPT 8.2µM.
`N#Cc1ccccc1OCCCN1CCC(C(O)(c2ccccc2)c2ccccc2)CC1` gave TDP1 cell CPT 18µM and TDP1 cell noCPT inconclusive.
`C=C(C)C1Cc2c(C)nn(-c3cccc4ccccc34)c2C1` (stereo not given) gave TDP1 cell CPT 21µM, miR-21 reporter inactive, TDP1 cell noCPT inconclusive, TDP1 block inactive and uPA surface inh inactive.
Screening Cc1cccc(-c2cc3nc(C)cc(NCCCn4ccnc4)n3n2)c1 returned TDP1 cell CPT inconclusive, miR-21 reporter inactive, TDP1 cell noCPT 23µM, TDP1 block inactive and uPA surface inh inactive.
For c1ccc(COc2cccc(-c3cc4nc(NCCc5ccncc5)ccn4n3)c2)cc1 the results were TDP1 cell CPT 15µM and TDP1 cell noCPT 13µM.
Clc1ccccc1-c1cc2nc(NCCCn3ccnc3)ccn2n1 was read as TDP1 cell CPT inactive and TDP1 cell noCPT inactive.
Screening c1ccc(COc2cccc(-c3cc4nc(NCCCn5ccnc5)ccn4n3)c2)cc1 returned TDP1 cell CPT inconclusive and TDP1 cell noCPT 15µM.
Screening COc1cccc(C2=CC(=O)C[C@H](c3ccc4c(c3)OCO4)C2)c1OC returned TDP1 cell CPT inactive, TDP1 cell noCPT inconclusive, TDP1 block inactive and uPA surface inh inactive.
`N=c1nc(N)nc2n1NC(c1ccc(F)cc1)=CS2` gave TDP1 cell CPT 18µM, miR-21 reporter inactive, TDP1 cell noCPT 16µM, TDP1 block inactive and uPA surface inh inactive.
For COC(=O)c1cc(=O)n(CCc2ccc(OC)cc2)c(=Nc2ccc(F)c(Cl)c2)s1 the results were TDP1 cell CPT inconclusive, miR-21 reporter inactive, TDP1 cell noCPT inconclusive, TDP1 block inactive and uPA surface inh inconclusive.
`COC(=O)c1cc(=O)n(Cc2ccc3c(c2)OCO3)c(=Nc2ccc(F)c(Cl)c2)s1` gave TDP1 cell CPT 8.2µM, miR-21 reporter inactive, TDP1 cell noCPT 6.5µM, TDP1 block inactive and uPA surface inh inactive.
